# Key:
# WI-L2 cells = experiment: Growth inhibition of cultured human WI-L2 tumor cells; details: WIL2, read-out: Cells IC50, WI-L2
# L1210 cells = experiment: Growth inhibition of cultured murine L1210 tumor cells; details: Mus musculus, L1210, read-out: Cells IC50, L1210
# carboxypeptidase G1 = experiment: Glutamate hydrolysis by carboxypeptidase G1 (HPLC); details: identical conditions
# [1] = tested on: DHFR, threonine residue replaced by valine; details: threonine to valine mutant; cited from earlier work
IC50 (WI-L2 cells) [nM],IC50 (L1210 cells) [nM],Compound,cleavage by carboxypeptidase G1 (carboxypeptidase G1),free energy difference [1] [kcal/mol]
330,220,Cc1nc(N)c2nc(CN(C)c3ccc(C(=O)N[C@@H](CCC(=O)O)C(=O)O)cc3)cnc2n1 [Example 4],,
,,"CN(Cc1cnc2nc(N)nc(N)c2n1)c1ccc(C(=O)N[C@@H](CCC(=O)O)C(=O)O)cc1 [MTX, methotrexate]",cleaved to 4-amino-4-deoxy-N^10 -methylpteroic acid,~2

# Reference: patent US4956461A, “Desamino-aminopterin and -methotrexate” (priority 1989, dated 1990)
